We go through two molecules from patent US20040116440A1, “Bombesin receptor antagonists” (priority 2000, published 2004).

Sequences of proteins named here, by UniProt entry; tags and fusion partners are left off.
UniProt P28336, whole entry: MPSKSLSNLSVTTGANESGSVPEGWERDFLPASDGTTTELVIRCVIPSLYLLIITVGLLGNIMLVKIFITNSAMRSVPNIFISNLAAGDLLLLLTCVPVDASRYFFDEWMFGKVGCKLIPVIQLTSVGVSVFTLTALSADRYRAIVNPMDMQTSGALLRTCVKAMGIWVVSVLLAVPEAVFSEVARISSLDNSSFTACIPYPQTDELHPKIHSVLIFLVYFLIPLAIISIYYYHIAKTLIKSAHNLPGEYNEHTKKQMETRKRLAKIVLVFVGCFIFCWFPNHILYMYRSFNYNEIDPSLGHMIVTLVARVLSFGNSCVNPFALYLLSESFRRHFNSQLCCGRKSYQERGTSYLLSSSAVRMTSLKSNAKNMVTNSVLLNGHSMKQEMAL
UniProt P30550, whole entry: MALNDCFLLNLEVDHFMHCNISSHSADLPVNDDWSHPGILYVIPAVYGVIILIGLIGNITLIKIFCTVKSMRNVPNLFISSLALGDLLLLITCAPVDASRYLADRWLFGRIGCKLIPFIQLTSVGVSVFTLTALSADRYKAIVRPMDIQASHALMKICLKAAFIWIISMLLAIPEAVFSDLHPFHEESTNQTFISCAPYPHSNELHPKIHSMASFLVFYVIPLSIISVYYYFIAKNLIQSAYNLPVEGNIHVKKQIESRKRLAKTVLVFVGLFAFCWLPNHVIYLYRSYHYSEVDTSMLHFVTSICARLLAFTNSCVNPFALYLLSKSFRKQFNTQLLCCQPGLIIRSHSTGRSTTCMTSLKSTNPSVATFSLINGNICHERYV

SMILES strings stand for the structures.

The target in assay [1] is cloned human NMB-preferring receptor (BB1) (Homo sapiens, UniProt P28336). Kind of assay: BB1 binding assay, [125I][Tyr4]bombesin competition on membranes of CHO-K1 cells. Conditions: read-out: BB1 IC50, Table 2, N-acyl derivatives of Intermediate VIa, 60 minutes. An excerpt: (§1) The compounds of the invention have been evaluated in receptor binding assays which measure their affinity in a cloned human NMB-preferring receptor (BB1) assay and in a cloned human GRP-preferring receptor (BB2) assay. […]
(§2) In the following experiments, measurement of BB1 and BB2 binding was as follows. CHO-K1 cells stably expressing cloned human NMB (for (BB1 assay) and GRP receptors (for BB2 assay) were routinely grown in Ham's F12 culture medium supplemented with 10% foetal calf serum and 2 mM glutamine. For binding experiments, cells were harvested by trypsinization, and stored frozen at −70° C. in Ham's F12 culture medium containing 5% DMSO until required. On the day of use, cells were thawed rapidly, diluted with an excess of culture medium, and centrifuged for 5 minutes at 2000 g. Cells were resuspended in 50 mM Tris-HCl assay buffer (pH 7.4 at 21° C., containing 0.02% BSA, […] bacitracin, […] chymostatin, […] leupeptin, and 2 mM phosphoramidon), counted, and polytronned (setting 5, 10 sec) before centrifuging for 10 minutes at 28,000 g. […] Radioactivity bound was determined using a gamma counter.
(§3) All competition data was analysed using nonlinear regression utilising iterative curve-plolting procedures in Prism® (GraphPad Software Inc., San Diego, USA). […]

Assay [2] concerns the target cloned human GRP-preferring receptor (BB2) (Homo sapiens, UniProt P30550). In words: BB2 binding assay, [125I][Tyr4]bombesin competition on membranes of CHO-K1 cells. Conditions: read-out: BB2 IC50, Table 2, N-acyl derivatives of Intermediate VIa, 90 minutes.
From the text: as §1, §2, §3

For `CN(C)c1ccccc1C(=O)N[C@@](C)(Cc1c[nH]c2ccccc12)C(=O)NCC1(c2ccccn2)CCCCC1`, the IC50 (as a rule, the midpoint of a concentration-inhibition curve) in assay [1] is 716 nM; in assay [2] it was greater than 10 µM. For the molecule `CN(C)c1cccc(C(=O)N[C@@](C)(Cc2c[nH]c3ccccc23)C(=O)NCC2(c3ccccn3)CCCCC2)c1`, in assay [2], the IC50 was greater than 10 µM.
